This is a selection; strong and weak results do not stand in their true shares. Inconclusive results are not listed. Activity calls are given as the source filed them. Calls come from the whole dose curve; as a rule, active = well fitted inhibition curve with a large enough effect; inconclusive = small, poorly fitted or top-dose-only effect; inactive = no such curve, though single readings can be large or run the other way.
Potency is the fitted concentration of half-maximal effect.

Chains of the proteins cited; added tags and fusions are not shown. Lines headed by an entry give the natural chain unless they say otherwise; changes in a name come on top.
UniProt O75164: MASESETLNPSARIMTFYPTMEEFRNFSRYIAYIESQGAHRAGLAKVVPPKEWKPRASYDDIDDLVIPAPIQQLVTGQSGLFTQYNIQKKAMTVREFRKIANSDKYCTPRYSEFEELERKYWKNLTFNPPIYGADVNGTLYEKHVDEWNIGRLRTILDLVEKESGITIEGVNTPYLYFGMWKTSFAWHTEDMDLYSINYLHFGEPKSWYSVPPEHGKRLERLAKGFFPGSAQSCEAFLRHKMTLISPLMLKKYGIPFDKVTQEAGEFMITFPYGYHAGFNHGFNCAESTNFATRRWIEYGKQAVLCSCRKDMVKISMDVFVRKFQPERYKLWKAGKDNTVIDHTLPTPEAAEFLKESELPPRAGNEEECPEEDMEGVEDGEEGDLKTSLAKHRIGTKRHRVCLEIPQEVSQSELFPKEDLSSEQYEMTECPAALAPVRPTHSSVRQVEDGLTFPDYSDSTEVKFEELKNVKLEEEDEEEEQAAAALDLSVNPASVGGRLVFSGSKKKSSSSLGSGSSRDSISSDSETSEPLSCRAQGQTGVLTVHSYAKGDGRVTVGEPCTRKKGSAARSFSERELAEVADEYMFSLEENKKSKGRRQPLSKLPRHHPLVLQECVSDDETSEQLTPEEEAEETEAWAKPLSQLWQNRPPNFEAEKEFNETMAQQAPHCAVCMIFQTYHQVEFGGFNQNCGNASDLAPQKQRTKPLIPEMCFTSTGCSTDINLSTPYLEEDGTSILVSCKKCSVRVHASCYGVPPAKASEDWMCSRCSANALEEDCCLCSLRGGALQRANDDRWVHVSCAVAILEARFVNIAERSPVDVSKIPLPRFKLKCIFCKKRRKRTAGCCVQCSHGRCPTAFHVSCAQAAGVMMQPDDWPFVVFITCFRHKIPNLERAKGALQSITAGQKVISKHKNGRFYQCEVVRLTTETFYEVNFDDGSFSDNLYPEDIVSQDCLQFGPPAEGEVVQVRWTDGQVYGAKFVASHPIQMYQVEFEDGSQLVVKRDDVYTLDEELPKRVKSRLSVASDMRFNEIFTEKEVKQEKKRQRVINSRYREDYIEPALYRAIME

The assay concerns the target Lysine-specific demethylase 4A (Homo sapiens) (UniProt O75164). Kind of assay: qHTS Assay for Inhibitors of JMJD2A-Tudor Domain. Note: nearly all actives have a fitted effect of over 50% in size. As to conditions: AlphaScreen JMJD2A-Tudor / H3K4me3 peptide binding. The text has this:
JMJD2A is a jumonji-domain-containing lysine demethylase that uses Fe(II) together with 2-OG to effect oxidative demethylation of histones. Methylation is one of many […] modification that affect epigenetic transcription. […] It is proposed that the functions of JmjD2A binding to the histones, is to maintain marks after they are installed and to spread the modifications by […], establishing a self-propagating cycle for rapid methylation over a large area of chromatin. […] A quantitative high throughput AlphaScreen has been developed to identify small molecule inhibitors based on a protocol published by NCGC and SGC [4]. […]
[2] Yasgar, et al. Compound Management for Quantitative High-Throughput Screening. […]
[3] Inglese, et al. Quantitative high-throughput screening: a titration-based approach that efficiently identifies biological activities in large chemical libraries. […]
To each well of a 1,536w plate, 2ul of JMJD2A-Tudor (final 100nM) and 1ul biotinylated histone peptide methylated at Lys4 [b-H3(1-18)K4me3] […] Microplates were then read on an EnVision multilabel plate reader using the 1,536 plate HTS AlphaScreen aperture (excitation time 80 ms, measurement time 240 ms).
In general terms: qHTS replaces the single test concentration by a dilution series.
With `OCCOCCN1CCN(C(c2ccccc2)c2ccc(Cl)cc2)CC1` (stereo unspecified), the Potency was active: 89.1 µM.

Values taken from PubChem BioAssay AID504339 (National Center for Advancing Translational Sciences (NCATS), 2011).
